Assay results: ChEMBL document CHEMBL4431312, “Development of an Orally Available and Central Nervous System (CNS) Penetrant Toxoplasma gondii Calcium-Dependent Protein Kinase 1 (TgCDPK1) Inhibitor with Minimal Human Ether-a-go-go-Related Gene (hERG) Activity for the Treatment of Toxoplasmosis” (J Med Chem, 2016)

Target: T1, Calmodulin-domain protein kinase 1 (Toxoplasma gondii, UniProt Q9BJF5)
T1 sequence (Q9BJF5 whole entry): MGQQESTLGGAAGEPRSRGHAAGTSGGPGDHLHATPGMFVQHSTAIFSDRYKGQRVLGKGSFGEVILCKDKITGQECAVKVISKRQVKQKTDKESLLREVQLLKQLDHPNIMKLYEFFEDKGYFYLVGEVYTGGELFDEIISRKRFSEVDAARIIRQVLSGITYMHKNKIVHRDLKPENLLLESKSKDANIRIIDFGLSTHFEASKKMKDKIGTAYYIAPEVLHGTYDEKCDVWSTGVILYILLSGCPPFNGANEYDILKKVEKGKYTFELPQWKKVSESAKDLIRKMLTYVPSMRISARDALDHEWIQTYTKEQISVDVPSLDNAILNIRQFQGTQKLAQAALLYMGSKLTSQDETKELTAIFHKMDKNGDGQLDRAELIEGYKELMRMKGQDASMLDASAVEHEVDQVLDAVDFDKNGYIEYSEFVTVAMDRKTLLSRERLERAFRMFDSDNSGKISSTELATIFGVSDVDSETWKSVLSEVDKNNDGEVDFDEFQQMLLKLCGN

## COCCOc1ccc2cc(-c3nn(CC4CCN(C)CC4)c4ncnc(N)c34)ccc2c1
  IC50: 15 nM
